Measurements reported in PubChem BioAssay AID504908 (NMMLSC, 2011).
The entries are a selection whose mix differs from that of the whole data set. Activity calls are given as the source filed them.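 How the source made its calls: active means inhibition above a set limit, roughly 3 SD of non-fluorescent compound noise (cut at about 38% in these data); inactive means inhibition at or below that limit.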

Protein sequences, listed by entry. Tags and fused reporters are not part of them. Lines headed by an entry give the natural chain unless they say otherwise; changes in a name come on top.
UniProt P63010: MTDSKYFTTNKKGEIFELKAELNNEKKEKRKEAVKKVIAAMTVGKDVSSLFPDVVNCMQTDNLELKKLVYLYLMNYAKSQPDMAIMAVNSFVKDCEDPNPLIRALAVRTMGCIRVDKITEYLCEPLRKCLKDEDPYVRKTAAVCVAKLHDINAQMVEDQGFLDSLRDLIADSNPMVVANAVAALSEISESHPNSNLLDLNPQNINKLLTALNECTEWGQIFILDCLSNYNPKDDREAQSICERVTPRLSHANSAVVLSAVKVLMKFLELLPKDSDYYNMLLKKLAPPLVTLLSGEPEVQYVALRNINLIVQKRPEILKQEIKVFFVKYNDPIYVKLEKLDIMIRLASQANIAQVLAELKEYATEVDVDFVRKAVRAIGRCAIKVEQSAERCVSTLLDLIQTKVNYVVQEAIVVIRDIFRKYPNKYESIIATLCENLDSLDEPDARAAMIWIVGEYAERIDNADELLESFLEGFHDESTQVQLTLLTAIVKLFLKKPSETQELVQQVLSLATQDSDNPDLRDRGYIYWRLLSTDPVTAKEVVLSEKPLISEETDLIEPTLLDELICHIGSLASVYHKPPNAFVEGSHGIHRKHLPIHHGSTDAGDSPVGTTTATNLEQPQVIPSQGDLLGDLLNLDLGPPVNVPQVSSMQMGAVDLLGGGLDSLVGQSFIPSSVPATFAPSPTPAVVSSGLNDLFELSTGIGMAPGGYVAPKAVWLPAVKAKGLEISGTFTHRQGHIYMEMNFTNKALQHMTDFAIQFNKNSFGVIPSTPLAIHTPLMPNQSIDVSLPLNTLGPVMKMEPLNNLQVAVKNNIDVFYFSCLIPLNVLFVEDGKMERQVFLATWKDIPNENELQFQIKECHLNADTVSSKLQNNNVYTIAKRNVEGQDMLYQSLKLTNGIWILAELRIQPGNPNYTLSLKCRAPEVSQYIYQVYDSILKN

These compounds were tested against AP-2 complex subunit beta (Homo sapiens) (UniProt P63010) (assay: beta-arrestin/AP2 interaction blockers, retest – biochemical, cherry pick 1, flow cytometry beads, confirmation (AID 504908;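 further: loss of bead fluorescence from 50 nM FITC arrestin peptide bound to appendage; 0% = negative control wells and 100% = excess unlabelled arrestin peptide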)). Conditions: GST-AP2 beads, FITC arrestin peptide binding, at 10 µM, stronger effect = higher value, GST-fused beta2-adaptin appendage, R879A mutant.

Compound	inhibition
COC(=O)c1cc2c(s1)N=C(c1ccccc1)N(C)P2(=O)N1CCOCC1 (stereo unspecified)	inactive: -3.24%
